According to patent US20260115304A1, “BIOACTIVE CONJUGATES, PREPARATION METHOD AND USE THEREOF” (priority 2023, published 2026):
Several values for one entry are separate records, joined by “and”; a condition that tells them apart may be missing. Identical values can stand only once. Like-named read-outs stand apart in the source and are kept apart here.

Tests used:
[1] = ADC hydrophobicity evaluation by HIC chromatography (DAR8 peak retention time); format: physicochemical; details: HIC retention time of DAR8 peak; later RT = higher hydrophobicity
Description: ADC hydrophobicity evaluation: An ADC with a higher hydrophobic property would appear with a later retention time (“RT”) from HIC (hydrophobicity interaction column) chromatography. Results are presented in Tables 2A-2D using the DAR8 peak as a reference.

[2] = system: U937 cells; assay: ADC direct killing in U937 cancer line (Cell Titer-Glo); format: cell-based, human; details: U937, 6 days; listed as ADC3-A
Protocol: U937 (ATCC, CRL-1593.2). […] U937 was purchased from ATCC. The base medium for U937 is ATCC-formulated RPMI-1640 Medium (ATCC 30-2001). To make the complete growth medium, fetal bovine serum to a final concentration of 10% (Gibco, 10099-141C) was added to the base medium. The cell line was grown in a humidified 5% CO2 atmosphere at 37° C., and was regularly tested for the presence of mycoplasma with MycoAtert™ PLUS Mycoplasma Detection Kit (Lonza, LT07-710).
ADC direct killing ADC direct killing was assessed in U937, HL60, and TF1 cancer lines. Cells were seeded (U937 or HL60 (3E3/well) or TF1 (6E3/well)) into 2D 96-well plates (Greiner: 655090), 100 μl/well (including 150 μg/ml Fe blocker), and incubated at 37° C., 5% CO2, for 1 h. Fresh growth medium was added containing varying concentrations of ADCs, 50 μl/well, and incubated at 37° C., 5% CO2, for 6 days. The cell viability was detected by Cell Titer-Glo (Promega, G7573), 70 μl/well. The 2D plates were allowed to incubate at room temperature for 10 minutes to stabilize the luminescent signal. The plates were analyzed with a microplate reader.

[3] = anti-CLL1 ADCs, mouse, 5 mg/kg
Protocol: ADC DAR changes in mouse serum PK samples.
Human CLL1 or PTK7, as applicable, ECD was biotinylated and immobilized onto Dynabeads M-280 Streptavidin. ADCs were captured from the plasma samples by incubation with an ECD-bead system for 2 hours at 37° C. The captured ADCs were then washed with HBS-EP buffer (10 mM Hepes [pH 7.4], 150 mM NaCl, 3.4 mM ethylenediaminetetraacetic acid [EDTA], 0.005% Surfactant P20) and digested using IdeS enzyme at 37° C. for 1 h. After extensive washing of the beads with HBS-EP, water, and 10% acetonitrile, the ADC analytes were eluted using 30% acetonitrile with 1% formic acid. The samples were then reduced with 100 mM TCEP for 45 min. Liquid chromatography-tandem mass spectrometry (LC-MS/MS)methods were used for the ADC DAR analysis.

[4] = anti-CLL1 ADCs, mouse, 5 mg/kg intravenous
Protocol: Female BALB/c nude mice (n=3 per group) were treated with freshly prepared ADCs (5 mg/kg) through intravenous administration. At the designated time points after dosing, mice were anesthetized by isoflurane. […] Blood samples were placed at room temperature for about 30 minutes and processed by centrifugation (4° C., 3000×g, 7 min) to separate plasma. Serum samples were transferred into new 1.5 mL tubes and kept in a −80° C. freezer prior to analysis.
Serum payload concentrations. To determine serum payload concentrations, an aliquot of 15 μL sample was added with 150 μL IS (Verapamil, 10 ng/mL) in ACN/MeOH (1:1). The mixture was vortexed for 1 min and centrifuged at 4000 rpm for 10 min at 4° C. An aliquot of 80 μL supernatant was diluted with 80 μL water, and the mixed sample was injected into LC-MS/MS.
LC-MS MS method to determine payload bioanalysis. LC-MS/MS analysis was carried out under the following measurement conditions: • Instrument: LC-MS/MS (Triple Quad 6500 plus) • Monitor: MRM • Column: Advanced Materials Technology, HALO AQ-C18 2.7 μm 90 Å, 50*2.1 mm • Column temperature: 40° C. • Mobile phase A: H2O-0.1% FA • Mobile phase B: ACN-0.1% FA • Gradient program for MMAE: 15% B-15% B (0 min-0.4 min), 15% B-30% B (0.4 min-0.8 min), 30% B-30% B (0.8 min-1.8 min), 30% B-90% B (1.8 min-1.9 min), 90% B-90% B (1.9 min-2.4 min), 90% B-15% B (2.4 min-2.5 min), 15% B-15% B (2.5 min-3.0 min) • Injected sample amount: 10 μL (MMAE)
Plasma ADC and total Ab (Tab) concentrations. Plasma ADC and Tab concentrations were determined using an ELISA assay in which the capture reagent was CLL1 or PTK7 (as applicable) ECD (extracellular domain). The detection reagent was anti-payload Ab for ADC concentration and anti-human IgG polyclonal Ab for Tab concentration.
For ADC concentration, microplates were coated with CLL1 or PTK7, as applicable. ECD at 1 μg/mL, 100 μL per well and incubated overnight at 4° C. The microplates were washed 3 times with 0.05% PBST, then 200 μL 2% BSA solution was added per well. The plates were incubated at 37° C. for 1 h followed by washing 3 times with 0.05% PBST. Then 100 μL (of ADC samples or for standard curves) were added to each well. Plates were incubated at 37° C. for 1h followed by washing 3 times with 0.05% PBST. 100 μL of 1 μg/ml biotin anti-MMAE antibody was added per well. Plates were again incubated at 37° C. for 1 h and then washed 3 times with 0.05% PBST. Then 100 μL of 1:10000 SA-HRP was added per well, incubated at 37° C. for 0.5h, followed by washing 3 times with 0.05% PBST. Lastly, 100 μL TMB was added per well and plates were incubated for 15 mins at room temperature before the addition of 100 μL stop solution per well. Plates were read at OD 450 on an ELISA microplate reader.
For Tab concentration of anti-CLL1 antibodies, the foregoing ADC method was used except for the following changes: 100 μL of anti human lgG Fc HRP (1:10000) was added per well.
For Tab concentration of anti-PTK1 antibodies, the foregoing ADC method was used except for the following changes: 100 μL of 1 μg/ml anti human lgG Fc HRP (1:10000) was added per well.
Female BALB/c nude mice were subcutaneously injected with 5×10^6 NCI-H1650 cells (mixed with Matrigel at a ratio of 1:1) in the right flank. After inoculation, tumor length (a) and width (b) were measured with calipers and tumor volumes were calculated using the formula V=0.5(a×b^2). When tumor volumes reached approximately 200 mm^3 in size, mice were randomized into 4 groups with 6 animals in each of a vehicle, ADC5-A, ADC5-1, and ADC5-2 group on Day 0. Animals were intravenously administrated with vehicle, ADC5-A (3 mg/kg), ADC5-1 (3 mg/kg), or ADC5-2 (3 mg/kg) on treatment Day 1. […] Blood was centrifuged at 5000×g for 10 minutes at 4° C. to obtain serum for PK assays. Animal body weight and tumor volume were measured twice weekly. Tumor growth inhibition (TGI) was calculated using the following formula: […]

B1: 3-A (conjugate)
heavy: EVQLVQSGAEVKKPGASVKVSCKASGYSFTDYYMHWVRQAPGQGLEWIGRINPYAGAAFYSQNFKDRVTLTVDTSTSTAYLELSSLRSEDTAVYYCAIERGADLEGYAMDYWGQGTLVTVSSASTKGPSVFPLAPSSKSTSGGTAALGCLVKDYFPEPVTVSWNSGALTSGVHTFPAVLQSSGLYSLSSVVTVPSSSLGTQTYICNVNHKPSNTKVDKKV[human IgG1 Fc omitted]
light: DIQMTQSPSSLSASVGDRVTITCRASQSVSTSSYNYMHWYQQKPGKPPKLLIKYASNLESGVPSRFSGSGSGTDFTLTISSLQPEDFATYYCQHSWEIPLTFGQGTKVEIKRTVAAPSVFIFPPSDEQLKSGTASVVCLLNNFYPREAKVQWKVDNALQSGNSQESVTEQDSKDSTYSLSSTLTLSKADYEKHKVYACEVTHQGLSSPVTKSFNRGEC
**Q.** What does the source list for B1?
**A.** DAR8 RT [1]: 14.466 min; EC50 [2]: 1 nM and 0.8 nM and 0.9 nM and 0.7 nM and 0.6 nM; DAR ([3]; 0.5 h post-dosing): 2.76 (0.5 h); DAR ([3]; 72 h post-dosing): 1.96 (72 h); DAR ([3]; […] post-dosing): 1.22 (168 h); ADC AUClast [4]: 4353 µg·h/mL; Tab AUClast [4]: 6448 µg·h/mL; Payload AUClast ([4]; payload MMAE): 8.58 ng·h/mL
